# Membrane permeability of cyclic peptides

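The data file gives no further conditions (lipid, pH, time, direction or concentration), and values from different papers need not be comparable. The list need not hold all peptides of the study. Entries at the database's floor value (log10 P of -10) are not listed.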

PAMPA is the parallel artificial membrane permeability assay, which has no cells and reads passive diffusion.
Values are log10 P with P in cm/s, so -5 is more permeable than -7.

The entry for CCC[C@H](C)[C@H]1OC(=O)[C@H](C)N(C)C(=O)[C@H]([C@@H](C)CC)NC(=O)CNC(=O)[C@@H](Cc2ccccc2)N(C)C(=O)[C@H](C)NC(=O)[C@@H]([C@@H](C)CC)OC(=O)/C(C)=C/C[C@H](O)[C@@H]1C lists PAMPA -4.91 (log10 cm/s). Listed for CCC[C@H](C)[C@H]1OC(=O)[C@@H](C)N(C)C(=O)[C@H]([C@@H](C)CC)NC(=O)CN(C)C(=O)[C@@H](Cc2ccccc2)N(C)C(=O)[C@H](C)NC(=O)[C@@H]([C@@H](C)CC)OC(=O)/C(C)=C/C[C@H](O)[C@@H]1C: PAMPA -4.87 (log10 cm/s). CCC[C@H](C)[C@H]1OC(=O)[C@H](C)N(C)C(=O)[C@H]([C@@H](C)CC)NC(=O)CN(C)C(=O)[C@@H](Cc2ccccc2)N(C)C(=O)[C@@H](C)NC(=O)[C@@H]([C@@H](C)CC)OC(=O)/C(C)=C/C[C@H](O)[C@@H]1C has PAMPA -5.39 (log10 cm/s). CCC[C@H](C)[C@H]1OC(=O)[C@H](C)N(C)C(=O)[C@H]([C@@H](C)CC)NC(=O)CN(C)C(=O)[C@@H](Cc2ccccc2)N(C)C(=O)[C@H](C)NC(=O)[C@@H]([C@@H](C)CC)OC(=O)/C(C)=C/C[C@H](OC)[C@@H]1C has PAMPA -5.68 (log10 cm/s). For CCC[C@H](C)[C@H]1OC(=O)[C@H](C)N(C)C(=O)[C@H]([C@@H](C)CC)NC(=O)CN(C)C(=O)[C@@H](Cc2ccccc2)NC(=O)[C@H](C)NC(=O)[C@@H]([C@@H](C)CC)OC(=O)/C(C)=C/C[C@H](O)[C@@H]1C the data give PAMPA -5.42 (log10 cm/s). The entry for CCC[C@H](C)[C@@H](OC)[C@@H](C)[C@@H]1C/C=C(\C)C(=O)O[C@H]([C@@H](C)CC)C(=O)N[C@@H](C)C(=O)N(C)[C@H](Cc2ccccc2)C(=O)N(C)CC(=O)N[C@@H]([C@@H](C)CC)C(=O)N(C)[C@@H](C)C(=O)O1 lists PAMPA -6.09 (log10 cm/s). CCC[C@H](C)[C@H]1OC(=O)[C@H](C)N(C)C(=O)[C@H]([C@@H](C)CC)NC(=O)CN(C)C(=O)[C@@H](Cc2ccccc2)N(C)C(=O)[C@H](C)NC(=O)[C@@H]([C@@H](C)CC)OC(=O)/C(C)=C/C[C@H](O)[C@@H]1C is reported with PAMPA -4.47 (log10 cm/s).

Data: CycPeptMPDB; original report Kaneda et al. 2018, doi:10.1021/acsmedchemlett.8b00028.